{
  "source": "paper PMC7310027",
  "about": "“PET imaging of soluble epoxide hydrolase in non-human primate brain with [^18F]FNDP” (EJNMMI Research, 2020)",
  "test_system": "soluble epoxide hydrolase (sEH)",
  "assay": "Baboon [^18F]FNDP PET, dose-escalation blocking with AR-9281 (Lassen plot, occupancy)",
  "assay_type": "in vivo, baboon (Papio anubis)",
  "conditions": "all brain regions, Baboon3",
  "experimental": "PET images were acquired using a CPS/CTI high-resolution research tomograph (HRRT), which has an axial resolution (FWHM) of 2.4 mm and in-plane resolution of 2.4–2.8 mm. […] These blocking studies were performed 27 to 43 days apart from each other to ensure full animal recovery. The animals had no food for 12 h prior to each PET study. Anesthesia was induced with intramuscular ketamine (7.5–10 mg/kg) and maintained with a continuous intravenous infusion of propofol at 0.3–0.4 mg/kg/min throughout the PET experiment. One venous catheter was inserted for the radioligand injection, and one arterial catheter was inserted to obtain arterial blood samples. Baboons were intubated to facilitate respiration, and circulatory volume was maintained by constant infusion of isotonic saline. Physiological vital signs including heart rate, blood pressure, electrocardiogram, and oxygen saturation were monitored continuously throughout the study.\nThe animals were positioned in the PET scanner with the head immobilized using a thermoplastic mask. […] The 90-min dynamic PET acquisition was then started in three-dimensional list mode simultaneously with an intravenous bolus injection of [^18F]FNDP. […]\nNext, kinetic modeling was performed based on the TACs and the metabolite-corrected arterial plasma input functions. For brain uptake, the primary outcome measure was the regional brain distribution volume (VT) of [^18F]FNDP, defined as concentration of the radiotracer in regional tissue relative to that in blood at equilibrium. We evaluated which compartmental models (e.g., two-tissue-three-compartment (2TCM) or one-tissue-two-compartment (1TCM)) best described the [^18F]FNDP PET data, using statistical model selection criteria, such as the Akaike information criterion. For comparison, the Logan graphical method (t* = 30 min) was also used to compute regional VT, as well as generating voxel-wise parametric images of VT [31].\nFor blocking studies, occupancy of sEH by FNDP was calculated using regional VT values as Eq 1 Occupancy=ΔVT/VTBaseline−VND, […]",
  "data": [
    {"smiles": "CC(=O)N1CCC(NC(=O)NC23CC4CC(CC(C4)C2)C3)CC1", "note": "[AR-9281, 1-(1-Acetyl-piperidin-4-yl)-3-adamantan-1-yl-urea, reference compound]", "values": [
      {"measurement": "estimated occupancy of sEH", "setting": "AR-9281 0.02 mg/kg s.c. 1 h before tracer", "value": "33.8 ± 3.8", "unit": "%"},
      {"measurement": "estimated occupancy of sEH", "setting": "AR-9281 0.1 mg/kg s.c. 1 h before tracer", "value": "88.6 ± 1.3", "unit": "%"},
      {"measurement": "estimated occupancy of sEH", "setting": "AR-9281 1 mg/kg s.c. 1 h before tracer", "value": "99.2 ± 1.1", "unit": "%"}
    ]}
  ]
}
